Data reported in patent US7326786B2, “Thiazolinone unsubstituted quinolines” (Hoffmann-La Roche Inc., priority 2004, dated 2008).

By UniProt entry, the sequences of proteins in these tests, tags left out.
UniProt P06493, whole entry: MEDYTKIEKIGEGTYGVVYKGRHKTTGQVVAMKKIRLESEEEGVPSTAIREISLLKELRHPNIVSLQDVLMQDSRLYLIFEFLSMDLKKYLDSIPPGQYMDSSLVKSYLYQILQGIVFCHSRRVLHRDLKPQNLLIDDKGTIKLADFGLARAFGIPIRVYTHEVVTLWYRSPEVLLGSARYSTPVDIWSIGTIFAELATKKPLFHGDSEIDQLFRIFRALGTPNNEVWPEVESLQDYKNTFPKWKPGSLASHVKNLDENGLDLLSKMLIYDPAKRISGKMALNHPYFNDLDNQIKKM
UniProt P14635, whole entry partner: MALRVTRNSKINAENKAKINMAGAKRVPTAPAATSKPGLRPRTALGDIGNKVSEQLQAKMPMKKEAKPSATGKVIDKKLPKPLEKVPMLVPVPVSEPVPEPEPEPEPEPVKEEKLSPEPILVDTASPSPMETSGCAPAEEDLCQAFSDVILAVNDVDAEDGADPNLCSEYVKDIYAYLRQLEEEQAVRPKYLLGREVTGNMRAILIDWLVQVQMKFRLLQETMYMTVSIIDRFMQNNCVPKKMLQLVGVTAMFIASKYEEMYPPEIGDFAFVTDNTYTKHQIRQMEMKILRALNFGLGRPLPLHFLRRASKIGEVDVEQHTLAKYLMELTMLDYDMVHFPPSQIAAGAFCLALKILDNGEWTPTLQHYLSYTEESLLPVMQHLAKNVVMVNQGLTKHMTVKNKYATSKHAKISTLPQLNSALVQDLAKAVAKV

Target: recombinant human CDK1/Cyclin B complex (Homo sapiens, UniProt P06493)
Experiment: CDK1/Cyclin B kinase assay (FlashPlate or HTRF)
Conditions: Rb protein substrate, Ki=IC50/(1+[S]/Km)
Procedure: To determine inhibition of CDK1 activity, either FlashPlate™ (NEN™-Life Science Products) assay or HTRF Homogeneous Time Resolved Fluorescence assay was performed. Both types of kinase assays were carried out using recombinant human CDK1/Cyclin B complex. GST-cyclinB (GST-cycB) and CDK1 cDNA clones in baculovirus vectors were provided by Dr. W. Harper at the Baylor College of Medicine, Houston, Tex. Proteins were co-expressed in High Five™ insect cells and the complex was purified on glutathione Sepharose resin (Pharmacia, Piscataway, N.J.) as previously described (Harper, J. W. et al. Cell 1993, 75, 805-816). […] Purified Rb fusion protein stocks were quantitated for protein concentration, aliquoted, and stored at −70° C.
For the FlashPlate kinase asasy, 96-well FlashPlates were coated with Rb protein at 10 μg/ml, using 100 μl per well. […] Plates were washed four times with the wash buffer, sealed, and counted on the TopCount scintillation counter (Packard Instrument Co., Downers Grove, Ill.]. The percent inhibition of Rb phosphorylation, which is a measure of the inhibition of CDK activity, was determined according to the following formula: […]
The Homogeneous Time Resolved Fluorescence (HTRF) kinase assay was carried out in 96-well polypropylene plates (BD Biosciences, Bedford, Mass.). […]

## O=C1N=C(NCCc2ccccn2)S/C1=C\c1ccc2ncccc2c1
  Ki: 798 nM
